This is an account of results in ChEMBL document CHEMBL1208732, “Addressing PXR liabilities of phthalazine-based hedgehog/smoothened antagonists using novel pyridopyridazines” (Bioorg Med Chem Lett, 2010).

Chains of the proteins cited; added tags and fusions are not shown.
UniProt Q99835, whole entry: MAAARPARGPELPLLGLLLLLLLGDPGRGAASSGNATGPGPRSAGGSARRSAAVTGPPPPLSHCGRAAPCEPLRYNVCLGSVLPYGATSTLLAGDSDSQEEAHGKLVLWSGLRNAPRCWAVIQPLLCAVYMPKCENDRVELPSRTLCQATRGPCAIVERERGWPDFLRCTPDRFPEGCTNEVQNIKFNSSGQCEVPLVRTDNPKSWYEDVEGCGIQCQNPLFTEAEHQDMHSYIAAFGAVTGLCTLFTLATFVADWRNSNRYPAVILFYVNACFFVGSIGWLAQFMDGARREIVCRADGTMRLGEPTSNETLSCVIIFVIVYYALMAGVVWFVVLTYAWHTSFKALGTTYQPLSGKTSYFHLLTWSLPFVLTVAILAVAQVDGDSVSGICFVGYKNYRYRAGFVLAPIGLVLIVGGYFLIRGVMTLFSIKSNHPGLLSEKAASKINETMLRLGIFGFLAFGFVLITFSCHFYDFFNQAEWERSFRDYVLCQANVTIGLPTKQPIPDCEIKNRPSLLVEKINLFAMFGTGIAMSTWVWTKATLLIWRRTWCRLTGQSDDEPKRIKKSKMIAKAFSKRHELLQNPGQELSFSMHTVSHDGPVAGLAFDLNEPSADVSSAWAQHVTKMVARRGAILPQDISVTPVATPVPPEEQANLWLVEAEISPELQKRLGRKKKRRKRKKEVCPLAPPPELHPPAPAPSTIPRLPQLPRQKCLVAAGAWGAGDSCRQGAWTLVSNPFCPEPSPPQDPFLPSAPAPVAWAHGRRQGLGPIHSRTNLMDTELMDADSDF

This experiment deals with Protein smoothened (Homo sapiens, UniProt Q99835). The experiment is described as follows: Antagonist activity at human Smo receptor in HEPM cells assessed as inhibition of Gli expression after 24 hrs by quantigene assay. It is filed as functional, cell-based. The method, boiled down: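 HEPM cells incubated with compound in MEM with 0.5% charcoal-dextran treated FBS and […] myristoylated mouse Shh protein. GLI expression measured 24 h after adding compound and Shh, using a Quantigene assay.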

As for `C[C@@H]1CN(C(=O)c2ccccc2)CCN1c1nnc(-c2ccc(N(C)C)cc2)c2ccccc12`, the IC50 – broadly, the concentration at which inhibition is half-maximal – was found to be 5.3 nM. The same measure for `C[C@H]1CN(C(=O)c2ccccc2)CCN1c1nnc(-c2ccccc2)c2ccccc12`: 5.3 nM.
